Measurements from article PMC11952234, “Functional profiling of synthetic camel milk-derived peptides with implication in glucose transport and diabetes” (PLOS One, 2025).
Values joined by “and” are separate entries in the source; they are usually repeats but may differ in a detail not shown here. Equal values may be shown once. Read-outs that look alike come from different tables or passages of the source. Marks after values point to notes of the source that are not given here.

Amino acid sequences for entries named in this document (tags omitted). Residues count along the entry.
UniProt P06213, 28-758 limits assumed: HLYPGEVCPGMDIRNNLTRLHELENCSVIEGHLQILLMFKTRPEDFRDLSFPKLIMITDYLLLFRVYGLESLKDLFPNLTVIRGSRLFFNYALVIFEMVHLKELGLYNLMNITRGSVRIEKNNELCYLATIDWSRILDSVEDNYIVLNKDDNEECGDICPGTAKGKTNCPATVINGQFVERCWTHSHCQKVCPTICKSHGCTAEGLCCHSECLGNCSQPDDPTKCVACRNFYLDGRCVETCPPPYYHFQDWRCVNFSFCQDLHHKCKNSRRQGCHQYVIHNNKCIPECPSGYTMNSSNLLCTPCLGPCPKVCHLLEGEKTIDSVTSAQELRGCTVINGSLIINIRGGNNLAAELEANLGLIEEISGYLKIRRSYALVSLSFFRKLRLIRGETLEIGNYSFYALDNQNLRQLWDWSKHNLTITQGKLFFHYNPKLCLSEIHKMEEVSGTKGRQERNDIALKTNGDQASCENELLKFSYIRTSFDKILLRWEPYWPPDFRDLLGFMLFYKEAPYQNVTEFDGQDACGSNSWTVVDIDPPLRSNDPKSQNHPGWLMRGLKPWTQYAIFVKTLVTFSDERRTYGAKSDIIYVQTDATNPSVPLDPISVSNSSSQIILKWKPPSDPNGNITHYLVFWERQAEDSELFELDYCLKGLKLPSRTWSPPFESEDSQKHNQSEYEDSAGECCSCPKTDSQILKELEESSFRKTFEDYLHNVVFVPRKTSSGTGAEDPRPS
UniProt P06213, 763-1382 limits assumed: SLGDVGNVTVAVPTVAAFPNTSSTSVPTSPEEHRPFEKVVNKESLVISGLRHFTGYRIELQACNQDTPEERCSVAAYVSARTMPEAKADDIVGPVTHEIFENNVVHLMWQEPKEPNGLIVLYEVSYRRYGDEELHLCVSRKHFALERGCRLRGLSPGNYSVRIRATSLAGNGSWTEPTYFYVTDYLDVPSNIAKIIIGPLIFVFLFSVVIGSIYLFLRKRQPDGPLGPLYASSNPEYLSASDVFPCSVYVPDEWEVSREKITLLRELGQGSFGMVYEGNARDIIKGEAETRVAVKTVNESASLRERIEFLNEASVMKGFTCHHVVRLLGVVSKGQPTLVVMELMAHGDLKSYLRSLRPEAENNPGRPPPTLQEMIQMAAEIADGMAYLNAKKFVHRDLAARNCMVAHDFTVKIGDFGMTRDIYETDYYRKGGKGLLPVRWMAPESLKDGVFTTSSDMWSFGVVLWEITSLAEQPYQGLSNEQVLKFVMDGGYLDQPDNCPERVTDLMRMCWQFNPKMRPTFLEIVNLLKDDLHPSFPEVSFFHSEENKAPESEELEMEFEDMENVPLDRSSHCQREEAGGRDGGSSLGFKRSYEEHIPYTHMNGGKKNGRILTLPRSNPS

What was measured:
[1] = target: T1, insulin receptor (IR); interaction of IR-Rluc with IRS1-YFP in HEK293 cells (Homo sapiens, UniProt P06213); test: BRET assay of IR activation (IR-Rluc/IRS1-YFP), single treatment, dose-response; type: cell-based; conditions: HEK293, 1 hour, 37°C, minimal data set for Figure 1, average
T1 construct: expressed in transfected cells; host or cells: HEK293 cells, transient co-transfection; plasmids provided by Dr. Tarik Issad (Cochin Institute, Paris)
Experimental: (§1) HepG2 and HEK293 cells were maintained at 37°C, 5% CO2 in complete RPMI and Dulbecco’s modified Eagle’s medium (DMEM), respectively, containing 0.3 mg/ml glutamine, 100 IU/ml penicillin, and 100 µg/ml streptomycin) supplemented with 10% fetal calf serum (Gibco, Carlsbad, CA, USA). The transient transfection in HEK293 cells was carried out in 75 cm flask containing 10^7 cells using Lipofectamine 2000 and 5 µg of IR-Rluc and 5 µg of IRS1-YFP (for BRET and phosphorylation experiments) as previously described. All assays were performed 48 hours post-transfection.
(§2) BRET technology was used for IR activation and its interaction with IRS1 as previously described. […] Following treatments, 10 μl of Coelenterazine h was added to a final concentration of 5 µ M and BRET measurements were carried out using the Tristar 2 multi-label plate reader (Berthold, Germany), allowing luminescence recording and signal integration at 480 nm and 540 nm.
(§3) Statistical analyses were performed statistical significance between the different treatments and conditions as indicated in the figures and tables and their captions. […] The significance is indicated in the figures by stars (****p-value < 0.0001, ***p-value < 0.001, ** p-value < 0.01, * p-value < 0.05), and the absence of stars means non-significant (p-value > 0.05). However, the two-way ANOVA was used for multiple comparisons to determine the statistical significance between the different peptides when compared to each other in the different assays as described in the tables.

[2] = system: insulin receptor (IR); insulin-induced IR-Rluc/IRS1-YFP BRET in HEK293 cells; test: BRET assay of IR activation, peptides combined with insulin; type: cell-based, human
Experimental: as §1, §2
as §3, with “For BRET, the data were normalized by taking as 100% of the maximal insulin-induced BRET signal in the vehicle and analyzed using GraphPad Prism software (San Diego, CA, USA). Statistical” for “Statistical”, “tables. In this case, the different letters indicate statistically significant effects (p-value < 0.05), while the same letters indicate no significant difference between the different treatments compared to each other.” for “tables.”

[3] = system: HepG2 cells; test: Glucose uptake assay (Glucose Uptake-Glo) in HepG2 cells; type: cell-based, human; conditions: 1 hour, 37°C
Experimental: Glucose uptake in HepG2 cells was carried out using Glucose Uptake-Glo Assay (Promega). For this, cells seeded in a 96-well white plate (50,000 cells/well) were first washed with PBS and starved in phenol red-, glucose-, and serum-free medium (Dulbecco’s modified Eagle’s medium containing 0.01 mM HEPES, 0.3 mg/ml glutamine, 100 IU/ml penicillin, and 100 µg/ml streptomycin). […] The treatment was removed, and the cells were washed once with PBS and then incubated with 50 μL/well of freshly prepared 2-deoxyglucose (500 μM) for 10 minutes at room temperature. The uptake process was stopped and neutralized, followed by the addition of 50 μl/well of 2-deoxyglucose-6-phosphate (2DG6P) detection reagent and incubation for 15-60 minutes at room temperature. The glucose-6-phosphate dehydrogenase (G6PDH) oxidizes 2DG6P to 6-phosphodeoxygluconate (6PDG) and reduces NADP + to NADPH. The reductase uses NADPH to convert the proluciferin to luciferin, which is then used by Ultra-Glo™ recombinant luciferase to produce luminescence. This luminescence, proportional to the amount of 2-deoxyglucose transported inside the cells upon treatment, was then measured using a 0.3–1 second integration on GloMax® Discover luminometer according to Glucose Uptake-Glo™ protocol.

## CC(C)[C@H](N)C(=O)N1CCC[C@H]1C(=O)N[C@H](C(=O)O)C(C)C [Peptide P8, VPV]
[1]; HEK293, read-out: BRET, % of the maximal response of insulin, Average, peptide 0.001 mg/ml
  Emax: 10.7%
[1]; HEK293, read-out: BRET, % of the maximal response of insulin, Average, peptide 0.005 mg/ml
  Emax: 19.9%
[1]; HEK293, read-out: BRET, % of the maximal response of insulin, Average, peptide 0.01 mg/ml
  Emax: 31.8%
[1]; HEK293, read-out: BRET, % of the maximal response of insulin, Average, peptide 0.05 mg/ml
  Emax: 34.4%
[1]; HEK293, read-out: BRET, % of the maximal response of insulin, Average, peptide 0.1 mg/ml
  Emax: 39.9%
[1]; HEK293, read-out: BRET, % of the maximal response of insulin, Average, peptide 0.5 mg/ml
  Emax: 39%
[1]; HEK293, read-out: BRET, % of the maximal response of insulin, Average, peptide 1 mg/ml
  Emax: 31.6%
[2]; Average of Experiments 1-7, 1 μM insulin + 0.1 mg/ml peptide, HEK293, minimal data set for Figure 2
  insulin-induced BRET, % of insulin's response in the vehicle, Average: 149.0
[2]; Experiment 3, 1 μM insulin + 0.1 mg/ml peptide, HEK293, minimal data set for Figure 2
  insulin-induced BRET, % of insulin's response in the vehicle: 166.4
[2]; Experiment 4, 1 μM insulin + 0.1 mg/ml peptide, HEK293, minimal data set for Figure 2
  insulin-induced BRET, % of insulin's response in the vehicle: 149.5
[2]; Experiment 5, 1 μM insulin + 0.1 mg/ml peptide, HEK293, minimal data set for Figure 2
  insulin-induced BRET, % of insulin's response in the vehicle: 127.2
[2]; Experiment 6, 1 μM insulin + 0.1 mg/ml peptide, HEK293, minimal data set for Figure 2
  insulin-induced BRET, % of insulin's response in the vehicle: 152.7
[2]; HEK293 cells, 1 μM insulin + 0.1 mg/ml peptide, 1 hour, 37°C, % of insulin's response in the vehicle taken as 100%, mean ± SD of five to seven independent experiments in triplicate
  % of maximal BRET (insulin-induced): 121 ± 14^d %
[2]; HEK293 cells, 0.1 mg/ml peptide + 1 μM insulin, compared to insulin alone (Vehicle)
  profile on insulin-dependent BRET response in combined treatment (in words): potentiating
[3]; Average of Experiments 1-5, HepG2, 0.1 mg/ml peptide or 1 μM insulin, minimal data set for Figure 5
  glucose uptake, specific luminescence signal, Average: 3788600
[3]; HepG2 cells, 0.1 mg/ml peptide or 1 μM insulin, % of insulin's response taken as 100%, mean ± SD of five independent experiments in triplicate
  % of glucose uptake: 135 – 150% and 150 ± 18^e %
